# Compounds with a hit are over-represented: about 2.5% of the library has one in this group of screens.
# TrxR1 substrate – rat thioredoxin reductase 1 substrate activity | O89049 | purified TrxR1 substrate turnover, NADPH consumption readout | Potency, µM (doses to about 114 µM), inactives show at the highest dose activity change, negative = substrate turnover | hit rate 0.01% among 390,000; note: potency is the fitted concentration of half-maximal effect; % is set by controls: 0 for no effect and ±100 for the full control effect; nearly all actives have a fitted effect of over 50% in size
#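 Rat TrxR1, dispensed at 90 nM, was prereduced with 400 uM NADPH (final) for 5 min at ~22 deg C, then incubated with compound 15 min before 400 uM selenite. A first-read NADPH fluorescence drop versus no-compound background flagged substrates.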
# Apoferritin bind – binds horse apoferritin like a general anesthetic | hit rate 0.074% among 350,000 | P02791 | apoferritin/1-aminoanthracene competitive binding, fluorescence | Potency, µM (titrated, usually from 77.5 µM), without a hit: at the top dose activity change, negative = displacement, actives largely listed as inhibitors; note: potency is the fitted concentration of half-maximal effect; % is set by controls: 0 for no effect and ±100 for the full control effect; nearly all actives have a fitted effect of over 20% in size
#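 10 uM apoferritin + 50% sat. 1-AMA, PBS; cpd 10 min RT; Ex380/Em535 endpoint; normalized to free probe vs complex; 4-param Hill fit; propofol titration as pos. ctrl.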
# miR-21 reporter – miR-21 reporter, rising signal. 340,000 tested, under 10 active. Potency, µM (highest dose often 38.3 µM), for the others: at the highest dose reporter change, positive = more light. HeLa miR-21 FLuc reporter, luciferase, 48 h. AID 2288; active = well fitted rising curve with a large enough effect; inconclusive = small, poorly fitted or top-dose-only effect; inactive = no such curve, though single readings can be large or run the other way;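 further: % of control where 0% means no effect; miR-21 action dims this reporter so a rising signal means less miR-21 action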
#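 Luminescence from a firefly luciferase reporter carrying a miR-21 binding site downstream, stably expressed under a CMV promoter in HeLa cells that make miR-21 endogenously, reports miRNA modulation after 48 h compound exposure up to approximately 40uM final.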
# ClpP mod – qHTS Assay for Activators of ClpP | AID 651965, 2013 | hit rate 1.9% among 340,000 | purified B. subtilis ClpP, FRET peptide cleavage, 20 min | Potency, µM (highest dose often 57.5 µM), for inactives: at the highest dose activity change, negative = active | ATP-dependent Clp protease proteolytic subunit (Bacillus subtilis (strain 168)), P80244; active = well fitted falling curve with a large enough effect; inconclusive = small, poorly fitted or top-dose-only effect; inactive = no such curve, though single readings can be large or run the other way; note: potency is the fitted concentration of half-maximal effect; the source files actives as falling curves though it sought activators and does not explain the sign; nearly all actives have a fitted effect of over 65% in size
#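 Buffer: 100 mM Tris/HCl pH8, 100 mM KCl, 0.05% low protease BSA, 2.5% glycerol, 0.01% Tween-20. ClpP 10 microg/mL final; 20 min RT; delta FRET normalized to ADEP and DMSO controls.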
# rTrxR1 inhibitor – inhibitors of rat thioredoxin reductase 1 | O89049 | recombinant rTrxR1, NADPH fluorescence consumption, selenite substrate | Potency, µM (doses to about 114 µM), for the others: at the top dose activity change, negative = inhibition, most hits filed as inhibitors | hit rate 1% among 390,000 | AID 588453; note: potency is the fitted concentration of half-maximal effect; % is set by controls: 0 for no effect and ±100 for the full control effect; nearly all actives have a fitted effect of over 65% in size
#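 Rat TrxR1 (90 nM in the dispensed reagent) was pre-reduced with 400 uM NADPH for 5 min at room temperature, then incubated with compound for 15 min. After 400 uM selenite was added, NADPH fluorescence (Ex 340/Em 450 nm) was followed for 8 min.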
# The depositor's hits bear a star; ? = inconclusive; . = not tested or not shown; [ ] = remark or other dose. Unless noted, calls come from the whole dose curve; as a rule, active = well fitted curve in the direction sought with a large enough effect; inconclusive = small, poorly fitted or top-dose-only effect, or another doubt; inactive = no such curve, though single readings can be large; an effect the other way counts as inactive or inconclusive.
# Letters: A = TrxR1 substrate; B = Apoferritin bind; C = miR-21 reporter; D = ClpP mod; E = rTrxR1 inhibitor
> COc1cc(/C=C(/C#N)c2ccc(F)cc2)ccc1Oc1ccc([N+](=O)[O-])cn1
  A = -13%; B = -13%; C = 10%; D = 32µM*; E = -7%
> COc1cc(/C=N\NC(=O)c2ccc(Cl)cc2)ccc1Oc1ccc([N+](=O)[O-])cn1
  A = 4%[57.1 µM]; B = -9%; C = 2%; D = -1%; E = 3%[57.1 µM]
> CCOc1cc(C=C(C#N)C#N)ccc1Oc1ccc([N+](=O)[O-])cn1
  A = -8%; B = -22%; C = 2%; D = -2%; E = 10µM*
> Cc1ccc(Sc2c(C)nn(C(=O)COc3ccccc3Br)c2C)cc1
  A = 14%; B = 6.3µM*; C = -19%; D = -2%; E = 41%
> Cc1ccc(Sc2c(C)nn(C(=O)COc3ccc(F)cc3)c2C)cc1
  A = 11%; B = 8%; C = -8%; D = -3%; E = 23%
> Cc1cc(-c2ccccc2)n[nH]1
  A = -1%; B = -9%; C = -16%; D = 2%; E = 20%
> FC(F)C(F)(F)C(F)(F)C(F)(F)c1cc(-c2ccccc2)n[nH]1
  A = -13%; B = 14µM*; C = 7%; D = 0%; E = -2%
> COc1cc2cc(C(=O)O)n(C)c2c(OC)c1OC
  A = 78%; B = -3%; C = 4%; D = 13µM*; E = 6%
> CC1CCc2c(sc(NC(=O)COC(=O)c3ccccc3NCc3ccco3)c2C#N)C1 (stereo not drawn)
  A = 44%; B = -16%; C = -1%; D = 13µM*; E = 3%
> N=C1/C(=C/c2coc3ccccc3c2=O)C(=O)N=C2SC(c3ccco3)=NN12
  A = -13%; B = -11%; C = -7%; D = .; E = 50µM*
> N=C1/C(=C\c2coc3ccccc3c2=O)C(=O)N=C2SC(c3ccncc3)=NN12
  A = 18%[0.0914 µM]; B = -8%; C = 3%; D = .; E = ?
> CC(C)CNS(=O)(=O)c1ccc(CCC(=O)N2CCN(c3ccc(F)cc3)CC2)cc1
  A = -6%; B = -13%; C = 21%; D = 1%; E = 15%
> COc1ccc(N2CCN(C(=O)CCc3ccc(S(=O)(=O)NCC(C)C)cc3)CC2)cc1
  A = 8%[57.1 µM]; B = -18%; C = 17%; D = 25µM*; E = 13%[57.1 µM]
> Cc1c(C(=O)N(Cc2ccco2)Cc2ccccc2Cl)oc2ccc(F)cc12
  A = 10%; B = 2%; C = -5%; D = -19%; E = ?
> CCCCNC(=S)N(Cc1c(C)noc1C)c1ccccc1
  A = 1%; B = -4%; C = -2%; D = 4µM*; E = 9%

# 3 successive compounds out of the list so far:
# Letters: A = TrxR1 substrate; B = Apoferritin bind; C = miR-21 reporter; D = ClpP mod; E = rTrxR1 inhibitor
> COc1ccc(N2CCN(C(=O)CCc3ccc(S(=O)(=O)NCC(C)C)cc3)CC2)cc1
  A = 8%[57.1 µM]; B = -18%; C = 17%; D = 25µM*; E = 13%[57.1 µM]
> Cc1c(C(=O)N(Cc2ccco2)Cc2ccccc2Cl)oc2ccc(F)cc12
  A = 10%; B = 2%; C = -5%; D = -19%; E = ?
> CCCCNC(=S)N(Cc1c(C)noc1C)c1ccccc1
  A = 1%; B = -4%; C = -2%; D = 4µM*; E = 9%

# (cont.)
# Letters: A = TrxR1 substrate; B = Apoferritin bind; C = miR-21 reporter; D = ClpP mod; E = rTrxR1 inhibitor
> CCNC(=S)N(Cc1c(C)noc1C)c1ccccc1
  A = -8%; B = 0%; C = 0%; D = -2%; E = -7%
> O=c1cc(-c2ccc(O)cc2)oc2cc(OC3OC(CO)C(O)C(O)C3O)c(C3OC(CO)C(O)C(O)C3O)c(O)c12 (stereo not drawn)
  A = .; B = 4%; C = .; D = .; E = .
> COc1ccc(OC)c(N(CC(=O)NCc2ccccc2)S(=O)(=O)c2ccccc2)c1
  A = -1%; B = -3%; C = -5%; D = 0%; E = 3%
> CC(=O)N(CC1CCCO1)c1nnc(-c2ccccn2)s1 (stereo not drawn)
  A = 12%; B = ?; C = -36%; D = 16µM*; E = 0%
> COCCN(C(C)=O)c1nnc(-c2ccccn2)s1
  A = 20%; B = -24%; C = -39%; D = ?; E = 24%
> O=C(C1=C(O)C(=O)N(CCN2CCOCC2)C1c1ccc(Br)cc1)c1cc2ccccc2o1 (stereo not drawn)
  A = -7%; B = ?; C = -5%; D = -7%; E = 10%
> Cc1ccc(C2C(C(=O)c3cc4ccccc4o3)=C(O)C(=O)N2CCN2CCOCC2)o1 (stereo not drawn)
  A = -9%; B = -9%; C = -29%; D = -9%; E = 22µM*
> CCN(CC)CCN1C(=O)C(O)=C(C(=O)c2cccs2)C1c1ccc(C)o1 (stereo not drawn)
  A = 3%[57.1 µM]; B = -2%; C = -14%; D = -2%; E = 16µM*
> CC(=O)C1=C(O)C(=O)N(CCN2CCOCC2)C1c1ccccc1 (stereo not drawn)
  A = -3%; B = -9%; C = -5%; D = -4%; E = 50µM*
> O=C(C1=C(O)C(=O)N(CCN2CCOCC2)C1c1ccccn1)c1cccs1 (stereo not drawn)
  A = 1%; B = -4%; C = -17%; D = -1%; E = 22µM*
> O=C(C1=C(O)C(=O)N(CCN2CCOCC2)C1c1cccs1)c1cc2ccccc2o1 (stereo not drawn)
  A = -1%; B = .; C = .; D = -4%; E = 56µM*
> O=C(C1=C(O)C(=O)N(Cc2ccco2)C1c1cccnc1)c1cc2ccccc2o1 (stereo not drawn)
  A = -7%; B = -17%; C = -1%; D = -4%; E = 13µM*

# Screening data (PubChem BioAssay)
